{
  "source": "patent US20190192060A1",
  "about": "“DEVICE AND METHOD FOR BLOOD VOLUME MEASUREMENT” (Oregon Health & Science University, priority 2017, published 2019)",
  "origin": "cited, not measured here",
  "settings": "in vivo; cited from earlier work",
  "data": [
    {"substance": "FITC-Dextran", "values": [
      {"measurement": "time remaining in circulation", "value": "24 to 48", "unit": "h"}
    ]}
  ]
}
